Values quoted from earlier work in patent publication US20220025053A1, “Methods of Inhibiting Metastasis in Cancer” (Wisconsin Alumni Research Foundation, priority 2018, published 2022).

Settings: in vivo; cited from earlier work

Q: For Maraviroc, which Side effects reported is on record?
A: The Side effects reported was “effects that have been reported include liver problems and skin”.
